# AlphaSeq binding of Ab-91 heavy chain variants to a spike HR2 peptide

From the AlphaSeq antibody data of Engelhart et al. 2022 (doi:10.1038/s41597-022-01779-4), copy in the FLAb collection.

Target: peptide PDVDLGDISGINAS, taken from heptad repeat 2 (HR2) of SARS-CoV-2 spike.

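AAYL51 was designed without a model: most single CDR substitutions and a random sample of double and triple ones. In AlphaSeq, yeast of one mating type display the scFv and yeast of the other type display the target. Pairs that bind mate more often; barcode pairs of the diploids are counted by sequencing. The ratio of observed to expected reads was calibrated, replicate by replicate, on BCL2-family standards whose Kd was known from biolayer interferometry. Each pool was mated in three replicate cultures.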

Parent scFv Ab-91: VL joined to VH by three GGGGS repeats. Changes lie in the heavy chain CDRs alone.
VL: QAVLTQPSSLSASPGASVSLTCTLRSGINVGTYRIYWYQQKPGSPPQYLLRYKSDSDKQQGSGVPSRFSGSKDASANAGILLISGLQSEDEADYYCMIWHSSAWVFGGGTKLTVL
VH: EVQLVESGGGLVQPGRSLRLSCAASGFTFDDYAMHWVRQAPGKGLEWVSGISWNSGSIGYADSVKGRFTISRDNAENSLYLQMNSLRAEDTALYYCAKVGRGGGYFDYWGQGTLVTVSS

Changes read parent residue, position, new residue, counted from the first residue of the VH shown. Scale: log10 of Kd in nM, estimated from mating counts; low values are strong binders. A mean of the replicates is given; it leaves out those without a signal. Where no diploid with the target was found in any replicate, the entry reads "no signal": below detection, most likely a poor binder, though not proof of it. Background: pairings of library AAYL51 with three empty control strains gave a value in 21% of cases (median 4.54, 5th percentile 3.26). Values in that range, when seen in few replicates, are hard to tell from nonspecific mating. The control count says in how many pairings with the empty strains this scFv gave a signal.

changes,"log10 Kd (nM), mean",seen in,empty controls
D31W R101M G104Y,no signal,0/3,1/9
D30T G50D R101S,5.69,2/3,3/9
D31E N54G R101K,2.61,3/3,1/9
G26A G102K Y108E,no signal,0/3,0/9
A61L G104R,5.09,1/3,1/9
S57R Y60V V99H,no signal,0/3,0/9
Y32C G100R R101M,2.58,3/3,0/9
F27R G59A K65F,4.97,1/3,0/9
F27G M34L Y105M,4.70,1/3,3/9
S57E S63M F106Q,4.64,1/3,1/9
Y32M I58L V64M,2.85,3/3,1/9
G50H I51F V64N,no signal,0/3,0/9
G56K A61C G102E,3.93,1/3,0/9
W53P D62P G100A,no signal,0/3,0/9
G26D F27S G100V,no signal,0/3,0/9
M34R S52L S55P,3.82,1/3,2/9
Y32R R101D,4.77,3/3,5/9
N54Y G102I G104E,4.62,2/3,5/9
Y60M G100H R101Q,no signal,0/3,0/9
D30Q N54S G103K,no signal,0/3,1/9
M34I G100I,3.74,3/3,0/9
G26E I58V G102M,4.77,1/3,2/9
G26H A33G G50Q,4.56,1/3,0/9
F29P D30V,no signal,0/3,0/9
S55M Y60W,no signal,0/3,0/9
S63F V64I G100Y,5.20,1/3,6/9
D30R A33G F106H,-0.23,3/3,9/9
D30E H35K G50D,no signal,0/3,2/9
F29W S55D D107N,no signal,0/3,2/9
D62V V64M,no signal,0/3,0/9
F27Y S55F G103T,no signal,0/3,1/9
H35L W53D K65G,no signal,0/3,0/9
D30A A33Y S55Y,no signal,0/3,2/9
M34L G104P D107S,4.77,1/3,5/9
Y60K K65M V99G,5.34,3/3,5/9

Further variants, results first:

"log10 Kd (nM), mean",seen in,empty controls,changes
5.40,2/3,9/9,H35Q S63A Y108I
4.98,1/3,2/9,F27L S57E D107G
4.14,1/3,2/9,H35V Y60D Y105H
no signal,0/3,0/9,F29C D62M
no signal,0/3,0/9,M34N S55C S57C
5.02,3/3,8/9,S57W V99D D107G
0.80,3/3,3/9,D30R F106C D107F
no signal,0/3,0/9,F29W K65G F106V
no signal,0/3,0/9,D62W V99D
3.39,2/3,2/9,N54P V99K
3.87,1/3,1/9,F29H D30M Y105P
no signal,0/3,1/9,N54Y V64D
5.94,1/3,3/9,G56C I58G Y60Q
no signal,0/3,0/9,H35R D62Y R101P
no signal,0/3,0/9,I51S Y108C
no signal,0/3,0/9,D31A Y60D D62F
3.74,1/3,0/9,N54A S63G V99R
4.97,1/3,6/9,F27D D30N I51M
4.51,2/3,2/9,S55Q D62G F106T
5.18,1/3,4/9,Y32T V64D G103W
no signal,0/3,1/9,T28H D30I D62S
no signal,0/3,3/9,W53Q A61M D107R
4.65,2/3,1/9,D30E A33V Y108D
4.23,1/3,6/9,F29K S52Q Y108E
no signal,0/3,0/9,I51A S52Y G104L
4.69,2/3,4/9,G59Y V64P F106K
4.10,3/3,2/9,N54S S55P
2.19,3/3,0/9,T28E A33P A61Q
no signal,0/3,0/9,N54K S55D G100V
3.21,3/3,3/9,W53Y D62Q Y105Q
no signal,0/3,0/9,F29K S55L Y108F
3.45,1/3,1/9,I51W F106I
no signal,0/3,0/9,D31H A61M V64R
no signal,0/3,0/9,F29D S52E Y105A
5.09,3/3,5/9,F29K D30A G104T

From the list, the first 6 with no signal in any replicate:

changes,"log10 Kd (nM), mean",seen in,empty controls
D31W R101M G104Y,no signal,0/3,1/9
G26A G102K Y108E,no signal,0/3,0/9
S57R Y60V V99H,no signal,0/3,0/9
G50H I51F V64N,no signal,0/3,0/9
W53P D62P G100A,no signal,0/3,0/9
G26D F27S G100V,no signal,0/3,0/9